In PubChem BioAssay AID485290 (National Center for Advancing Translational Sciences (NCATS), 2010):
Several values for one entry are separate records, joined by “and”; a condition that tells them apart may be missing. Equal entries are not always repeated. The list shows a part of the results, in another mix than the full data. Activity calls are given as the source filed them. The call rests on the fitted dose curve; in most records, active means well fitted inhibition curve with a large enough effect; inconclusive means small, poorly fitted or top-dose-only effect; inactive means no such curve, though single readings can be large or run the other way.
Potency means the concentration at half of the fitted maximal effect.

The chains behind the UniProt entries cited, without tags or fusion partners.
UniProt Q9NUW8, whole entry, looked up: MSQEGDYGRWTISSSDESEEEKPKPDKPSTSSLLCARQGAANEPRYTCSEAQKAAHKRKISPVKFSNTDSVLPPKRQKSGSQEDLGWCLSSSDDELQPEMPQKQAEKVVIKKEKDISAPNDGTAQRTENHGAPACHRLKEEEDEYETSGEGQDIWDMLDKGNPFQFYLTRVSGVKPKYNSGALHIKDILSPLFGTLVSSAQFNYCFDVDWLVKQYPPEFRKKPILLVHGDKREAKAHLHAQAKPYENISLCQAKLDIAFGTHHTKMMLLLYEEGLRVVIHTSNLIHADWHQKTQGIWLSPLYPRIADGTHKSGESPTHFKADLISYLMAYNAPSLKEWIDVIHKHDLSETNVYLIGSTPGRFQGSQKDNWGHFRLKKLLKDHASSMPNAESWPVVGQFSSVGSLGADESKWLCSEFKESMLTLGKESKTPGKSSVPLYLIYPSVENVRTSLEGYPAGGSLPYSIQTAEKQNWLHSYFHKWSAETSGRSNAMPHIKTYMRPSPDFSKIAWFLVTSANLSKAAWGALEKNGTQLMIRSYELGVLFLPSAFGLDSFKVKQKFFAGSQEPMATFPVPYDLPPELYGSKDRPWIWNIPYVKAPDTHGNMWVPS

What follows are compounds tested against Tyrosyl-DNA phosphodiesterase 1 (Homo sapiens) (UniProt Q9NUW8) (assay: qHTS Assay for Inhibitors of Tyrosyl-DNA Phosphodiesterase (TDP1)). Conditions: recombinant TDP1, AlphaScreen DNA substrate cleavage.
Excerpt: NIH Molecular Libraries Probe Production Network [MLPCN]
NIH Chemical Genomics Center [NCGC]
Assay Provider: Yves Pommier and Christophe Marchand, National Cancer Institute
Assay Title: qHTS Assay for Inhibitors of Tyrosyl-DNA Phosphodiesterase (TDP1); further: nearly all actives have a fitted effect of over 40% in size
Human tyrosyl-DNA phosphodiesterase I (Tdp1) is a rational anticancer target because this enzyme is involved in the repair of DNA lesions created by the trapping of human DNA topoisomerase I (Top1) following treatment by anticancer agents such as camptothecins. Recombinant Tdp1 was expressed and purified from E. coli in the laboratory (Anthony et al, Nucleic Acids Research, 2007, Vol. 35, 4474-4484). A Tdp1 DNA substrate bearing a 5' biotin and a 3' phospho-tyrosine was obtained by custom synthesis. This oligonucleotidic DNA substrate was subsequently coupled to a fluorescein isothiocyanate (FITC) group via the free amino group present on the phospho-tyrosine. Tdp1 was screened against the NCGC small molecule library using the AlphaScreen (AS) detection method in which a streptavidin donor AS bead is bound at the 5' end and an anti-FITC AS acceptor bead is bound at the 3' end of the DNA oligonucleotidic substrate. […]
3 ul of Tdp1 enzyme is dispensed to 1536-well Kalypsys black solid bottom plates. […] The detection is then performed on a PerkinElmer Envision reader.
In the case of `O=C(O)C1=CC(=C(c2ccc(O)c(C(=O)O)c2)c2ccc(O)c(C(=O)O)c2)C=CC1=O`, the Potency is reported as active: 31.6 nM and active: 17.8 nM.
